Arrestin-AP2 inh: inhibitors of beta-arrestin/AP2 binding, primary screen, biochemical, GPCR trafficking, flow cytometry | hit rate 0.31% among 340,000 | AID 504490, 2011 | FITC-arrestin peptide / GST-AP2 beads; AP2 beta2 appendage carries R879A mutation | beta-arrestin 1 C-terminal peptide binding to AP2 beta2-adaptin appendage (human) | inhibition, % at 10 µM;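 active = inhibition above a set limit, near 3 SD of compounds lacking own fluorescence, cut at about 54% in these data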
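test system = AP2 appendage R879A on GSH beads | buffer or medium = PBS plus Tween 20 (0.05%) and BSA (0.1%) | incubation = 12 min plus 1 h, RT | detection = bead flow cytometry, FITC channel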
Rce1 inh: yeast Rce1p protease inhibitors, primary screen, biochemical, fluorescence, cell-free homogeneous. CAAX prenyl protease 2 (Saccharomyces cerevisiae (strain ATCC 204508 / S288c)), Q03530. yeast membranes, quenched prenylated peptide cleavage fluorescence. calls only. hit rate 0.27% among 290,000. AID 2563, 2010;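 active = fall in fluorescence gain of 50% or more versus controls, with final raw signal at or below 3038400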
UUG fidelity: alters start codon recognition fidelity in yeast; S. cerevisiae UUG-firefly luciferase reporter, luminescence/redox ratio; activity score, % at 18.7 µM; actives 0.13% (n = 350,000); AID 602363;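 active = replicate mean at a twofold rise or more, about +100% in these data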;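 also: firefly luciferase made from a UUG start codon reports start codon fidelity; reporter light over untreated wells divided by growth signal over untreated wells; some hits fall short of that in this replicate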
Tb MetRS inh: T. brucei MetRS inhibitors, primary screen, biochemical, luminescence | purified T. brucei MetRS, ATP depletion, Kinase-Glo luminescence | inhibition, % at 11.9 µM | hit rate 0.4% among 360,000 | AID 624268, 2012;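 active = inhibition above a per-plate cutoff of the control wells' mean inhibition plus 3 SD, cut at about 5.5% in these data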
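System: purified T. brucei MetRS enzyme / Detection: Kinase-Glo luciferase luminescence reporting remaining unconsumed ATP / Medium: HEPES buffer with MgCl2, KCl, DTT, spermine, BSA, pyrophosphatase / Replication: singlicate, one well per compound / Evaluation: percent inhibition relative to median high and low control wells / Schedule: 2 h aminoacylation at 25 °C after 15 min preincubation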
DSG3 Ab inh: inhibitors of pemphigus antibody binding to DSG3, primary screen, biochemical, bead-based, flow cytometry, scFv-GFP | DSG3-coupled beads, scFv-anti-DSG3-GFP binding; stronger effect = lower value | binding (percent of control), % at 10 µM | hit rate 0.48% among 310,000;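 active = binding more than 3 SD below its plate's average and above zero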
Numbers stand for hits; - = inactive; . = no result given; + = active, no number. The list is not random: actives were taken first. Their share in the collection is about 1.2%.

SMILES	Arrestin-AP2 inh	Rce1 inh	UUG fidelity	Tb MetRS inh	DSG3 Ab inh
COc1ccc(-c2cc3ccc(OCC(C)=O)cc3oc2=O)cc1OC	-	-	-	-	-
COc1ccc(C[C@H]2c3cc(O)c(OC)cc3CC[N+]2(C)[O-])cc1O (stereo not given in full)	-	+	-	-	-
COc1cc2c(cc1O)C(Cc1ccc(O)cc1)[N+](C)([O-])CC2 (stereo not given)	-	-	-	-	-
CC(C)Sc1ccc(C(=O)Nc2ccc(F)cc2F)cn1	-	-	.	-	68
O=C1CCN(Cc2ccccc2)CCN1[C@H](CSc1ccccc1)Cc1ccccc1	-	+	-	-	-
O=C(Nc1cccc([N+](=O)[O-])c1)c1ccc(CSc2ccccc2)cc1	-	-	-	-	80
O=C(Nc1cccc([N+](=O)[O-])c1)c1ccccc1	-	-	-	-	-
Cc1noc(C)c1S(=O)(=O)N(C)C[C@@H]1OCCCC[C@@H](C)Oc2ccc(NC(=O)NC(C)C)cc2C(=O)N([C@@H](C)CO)C[C@H]1C	.	.	-	.	.
CN(C)CC(=O)Nc1ccc2c(c1)[C@@H]1C[C@@H](CC(=O)N(C)C)O[C@H](CO)[C@@H]1O2	.	.	-	.	.
CCCCN(CC)CCCNC(=O)c1cc2cc3ccc(C)cc3nc2o1	-	-	-	-	69
CCCCN(CC)CCNC(=O)c1cc2cc3ccc(Cl)cc3nc2o1	-	-	-	-	-
Cc1nn(-c2ccccc2)nc1-c1nnc(-c2ccc(C(F)(F)F)cc2)o1	-	-	-	-	76
Cn1c(SCc2cccc(F)c2)nnc1-c1cnccn1	-	-	-	-	77
COc1cccc(CNC(=O)[C@@H]2[C@@H](CO)[C@@H]3Cn4c(cccc4=O)[C@H]2N3C(=O)C2CC2)c1	.	.	-	.	.
C=C(C)CSc1nc2sc3c(c2c(=O)n1-c1ccc(OC)cc1)CCN(C)C3	.	+	.	.	.
COC(=O)CSc1nc2sc3c(c2c(=O)n1-c1ccc(OC)cc1)CCN(C)C3	-	-	-	-	-
C[C@@H]1CCCCO[C@@H](CN(C)Cc2ccc3c(c2)OCO3)[C@H](C)CN([C@H](C)CO)C(=O)c2cc(NC(=O)Nc3ccccc3)ccc2O1	.	.	-	.	.
NNc1ccc([N+](=O)[O-])c2[nH][nH]c(=O)c12	.	.	-	-	83
O=[N+]([O-])c1ccc(Nc2ccccc2)c2nonc12	-	-	-	-	-
CC(NC(=O)/C=C/c1ccco1)c1nc2ccccc2n1Cc1ccccc1F (stereo not given)	-	-	.	-	81
C=CCSc1nnc2nc3c(nn12)c1cc(C)ccc1n3CC=C	-	-	-	-	-30
O=C(c1ccc(Cl)cc1)[C@@H]1[C@@H]2C(=O)N(c3ccccc3)C(=O)[C@@H]2C2c3ccccc3C=NN21 (stereo not given in full)	-	-	-	-	78
CCC(=O)N1[C@H](CO)[C@H](c2ccc(-c3ccc(F)cc3)cc2)[C@H]1CNC(C)=O	.	.	-	.	.
Cc1nc2c(C(=O)N3CCCCC3)cnn2c(C)c1Cc1ccccc1F	-	-	-	-	-
Cc1nc2c(C(=O)N3CCN(C)CC3)cnn2c(C)c1Cc1ccc(Cl)cc1	-	+	-	-	-
SMILES	Arrestin-AP2 inh	Rce1 inh	UUG fidelity	Tb MetRS inh	DSG3 Ab inh
O=C(O)c1ccccc1NCCO	-	+	.	-	-
Clc1ccc(-n2c(SCc3nc4ccccc4[nH]3)nnc2-c2ccncc2)cc1	-	-	-	6.7	-
O=c1[nH]c(CSc2nnc(-c3ccccc3)n2-c2ccccc2)nc2ccccc12	-	.	.	-	-
O=C(O)CCCN1C(=O)/C(=C/c2ccc(-c3nc4ccccc4s3)o2)SC1=S	-	-	-	-	89
CO[C@@H]1CN(C)C(=O)c2cc(NC(=O)C3CCC3)ccc2OC[C@@H](C)NC[C@H]1C	.	.	-	.	.
CCOC(=O)c1ccc(NS(=O)(=O)c2ccc3c(c2)oc(=O)n3C)cc1	-	-	-	-	-
COC(=O)c1ccc(NS(=O)(=O)c2ccc3c(c2)oc(=O)n3C)cc1	-	-	-	-	92
COC(=O)c1ccc(NS(=O)(=O)c2ccc3c(c2)n(C)c(=O)n3C)cc1	-	-	-	-	76
CN1CCN(C(=O)C[C@@H]2CC[C@@H]3[C@H](COC[C@H](O)CN3C(=O)C3CCOCC3)O2)CC1	.	.	-	.	.
CC(C)c1ccc(/C=C2\SC(=S)N(CCC(=O)NCCCn3ccnc3)C2=O)cc1	-	+	-	-	-
C[C@H]1CCCCO[C@@H](CN(C)C(=O)c2ccccc2)[C@@H](C)CN([C@@H](C)CO)C(=O)c2cc(NC(=O)CCC(F)(F)F)ccc2O1	.	.	-	.	.
Cc1cc(C)c(C(=O)NC2CC(C)(C)Cc3c2cnn3-c2cccc(F)c2)[nH]1 (stereo not given)	-	-	-	-	-
CCn1nc(C)cc1C(=O)NC1CC(C)(C)Cc2c1cnn2-c1cccc(F)c1 (stereo not given)	-	+	-	-	.
Cc1ccc(-c2cn3cccnc3n2)cc1NC(=O)c1ccc(Br)o1	-	-	-	-	81
CC(C)CC#Cc1cnc2c(c1)C(=O)N([C@H](C)CO)C[C@H](C)[C@@H](CN(C)S(=O)(=O)c1cccs1)O2	.	.	-	.	.
Cc1ccc2nc(-c3ccccc3)cn2c1	-	+	-	-	-
O=C(Nc1cccc(N2C(=O)C3C4C=CC(C4)C3C2=O)c1)c1cccs1 (stereo not given)	-	-	.	-	-
Cc1cc(N2C(=O)C3C4C=CC(C4)C3C2=O)ccc1NC(=O)c1cccs1 (stereo not given)	-	+	-	-	-
C[C@H]1CN([C@@H](C)CO)C(=O)c2cccc(NS(=O)(=O)c3cn(C)cn3)c2O[C@@H]1CN(C)Cc1ccncc1	.	.	-	.	.
O=C(NCCc1ccccc1)C1CCN(C(=O)Nc2ccccc2)CC1	-	-	-	-	-
O=C(NCCc1ccccc1)C1CCN(c2ncccn2)CC1	-	-	.	-	89
NS(=O)(=O)c1ccc(CCNC(=O)C2CCN(C(=O)Nc3ccccc3)CC2)cc1	-	.	-	-	57
C[C@@H]1CN([C@@H](C)CO)C(=O)c2cc(-c3cccc(F)c3)cnc2O[C@H]1CN(C)S(=O)(=O)c1cccc(F)c1	.	.	-	.	.
O=C(Nc1ccc2oc(=O)ccc2c1)c1ccc(-c2ccccc2[N+](=O)[O-])o1	-	-	.	-	83
Cc1ccc2nc(SCc3ccc([N+](=O)[O-])cc3)[nH]c2c1	-	-	-	19	-
Cc1ccc2nc(SCC(=O)Nc3cccc([N+](=O)[O-])c3)[nH]c2c1	-	-	-	72	-
Cc1ccc2nc(SCC(=O)Nc3ccc(C(N)=O)cc3)[nH]c2c1	-	-	.	-	-

Compound activity as filed in PubChem.
